# Binding of CDR-mutated scFvs to a peptide of the spike HR2 region

From the AlphaSeq antibody data of Li et al. 2023 (doi:10.1038/s41467-023-39022-2), copy in the FLAb collection.

Target peptide (SARS-CoV-2 spike, HR2 region): PDVDLGDISGINAS

The variants keep the heavy chain, the linker and the frameworks of Ab-14 (scFv order VH, a (GGGGS)3 linker, VL).
VH: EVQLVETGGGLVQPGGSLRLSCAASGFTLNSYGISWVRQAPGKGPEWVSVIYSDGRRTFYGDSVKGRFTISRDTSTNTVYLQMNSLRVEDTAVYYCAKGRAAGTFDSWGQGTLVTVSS
VL: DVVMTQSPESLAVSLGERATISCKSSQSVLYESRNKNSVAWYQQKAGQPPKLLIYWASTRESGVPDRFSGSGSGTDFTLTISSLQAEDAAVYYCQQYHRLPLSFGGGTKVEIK

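Phage display of a naive human antibody library on the peptide gave the parent. This is the validation round: designs drawn from the data on random variants, tested in the same kind of assay. Their group label is 14L_En_HC (En: ensemble of fine-tuned language models; HC: hill climbing; a sequence that several methods proposed may carry one label only). AlphaSeq pools MATa yeast showing the antibodies with MATalpha yeast showing the peptide. Mating (16 h, 30 °C) was followed by selection of diploids and sequencing of their barcodes. Each replicate has its own calibration line, from reference interactions of the BCL2 family. Mating was done six times.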

Each variant is given by its three light chain CDRs, as the data file delimits them; those of the parent are KSSQSVLYESRNKNSVA, WASTRES, QQYHRLPLS.
Values are log10 of the apparent Kd in nM; lower means stronger binding.
"nd" means that the variant was in the library but no mating with the target was seen in that replicate; the authors take this as a sign of poor binding, and no number exists.
Nonspecific signal, from three strains lacking the peptide, appeared in 4% of pairings of all light chain designs, centred on 2.64 (5% of these signals below 1.59); values are not corrected for it. Also given: how often the same scFv was detected with the empty control strains, with their mean in brackets.
In the paper, a design with two or fewer of six values counts as a poor binder.
A sequence measured in both rounds can read differently, since the two assays cover different ranges.
The parent sequence was in this pool as ten entries: three were never detected, three once, and four in most replicates, with averages from 0.34 to 2.37.

| CDR-L1 | CDR-L2 | CDR-L3 | log10 Kd, replicates | control signals |
|---|---|---|---|---|
| KLGQSVAMTSRMKNNVA | DLNTRER | QQYHRLPLS | 0.35 / 0.38 / 0.21 / 0.17 / 0.37 / 0.42 | 1/18 (2.48) |
| TISQSWFIEQRNKNNVA | EMTTREN | QDYDRLPLS | 1.02 / 0.79 / 1.04 / 0.07 / 0.14 / nd | 0/18 |
| SITQLTAYGSRNKNSVA | QMSTRES | QQYDRLPLS | 2.14 / 0.77 / 1.91 / 1.20 / 0.55 / 0.86 | 0/18 |
| NFPQEVMYESHFKNNVA | QTSTRED | QQYDHLPLS | 0.13 / 0.17 / -0.19 / 0.13 / 0.01 / 0.33 | 1/18 (3.05) |
| IISGVMLMESRNKNSVA | NAETREY | QHYDRLPLS | 0.46 / 0.47 / 0.08 / 0.09 / 0.68 / 0.85 | 1/18 (2.63) |
| TLSQSWGMESHHKNNVA | QEETREK | QQYFRLPIS | 1.34 / 1.22 / 1.06 / 1.31 / 1.41 / 1.27 | 3/18 (3.01) |
| NISQMIFMETHHVNNVA | QTSTREE | QDYHRLPLS | nd / 2.51 / 1.70 / 1.99 / 2.53 / 2.49 | 2/18 (3.90) |
| MLGDTTMQGMYSRNSVA | QESTRAE | QQYHHLPLS | 0.80 / 0.61 / 0.27 / 0.77 / 0.15 / 0.74 | 2/18 (2.53) |
| IISQVDGYLSRNKNSIA | DQSTRGS | QQYDRLPLS | 0.81 / 0.51 / 0.87 / 0.75 / 0.95 / 0.89 | 0/18 |
| MISESVMYESRNRNNVA | DNSTRED | QCYDRLPLS | nd / nd / nd / nd / nd / nd | 1/18 (3.23) |
| KLRQVTEIESFNKNSVA | QTETREN | QDYDRLPLS | nd / nd / nd / nd / nd / nd | 0/18 |
| KIASSMNLTSHHINSVA | QSETRED | QQYNHLPLS | 1.30 / 1.20 / 1.37 / 1.12 / 1.11 / 1.00 | 2/18 (2.56) |
| TISQMFMMENQFKNSVA | QASTRES | QCYDRLPLS | 2.50 / 2.47 / 2.23 / 2.63 / 1.62 / nd | 0/18 |
| KLSQVTEYESRNKNNVA | DLSTRGS | QDYHRLPLS | -0.11 / -0.71 / -0.41 / -0.35 / -0.07 / -0.44 | 1/18 (1.76) |
| HMSQVTMYGYWNKNSVA | QTSTREE | QQYDRLPLI | 3.52 / 2.78 / 2.99 / 2.38 / 3.66 / 2.70 | 0/18 |
| TIAQSVNMTGLNRNSVA | QAEERIE | QQYHRLPLS | 1.65 / 2.03 / 2.06 / 0.99 / 1.90 / 1.35 | 0/18 |
| QLLMATMQGKYNRNSVA | HAETRED | QSYHRLPLS | 0.93 / 0.47 / 0.99 / 2.31 / 0.93 / 0.80 | 1/18 (1.01) |
| MISGTVMSESRLKNSVA | QTTTRES | QQYDRLPLS | 0.98 / 0.71 / 1.52 / 0.86 / 0.36 / 0.92 | 0/18 |
| TLSQMWGMESRNKNNVA | QESTREK | QQYFRLPIS | 0.45 / 0.41 / 0.50 / 0.44 / 0.34 / 0.48 | 1/18 (2.73) |
| MFSQLTYTGSRARNAVA | QASTREN | QQYHHLPLS | 1.49 / 1.11 / 0.76 / 0.64 / 0.80 / 0.53 | 1/18 (1.93) |
| ILSQSVLMGSHLKNSVA | QASTRFN | QQYHRLPLM | 1.43 / 1.22 / 1.54 / 1.40 / 0.83 / 0.87 | 1/18 (2.17) |
| KISQLVNFEGKSKNSVA | QMSTRES | QQYDRLPLS | 0.95 / 1.58 / 1.63 / 1.03 / 2.28 / 1.35 | 0/18 |
| HISEMIFAQSKMRNSVA | ENSTRES | QQYDRLPLS | 1.21 / 3.59 / 1.83 / 2.80 / 1.48 / 1.43 | 0/18 |
| KVSDSMAFLQRNRNSVA | DNSTRGS | QQYHRLPLS | 0.19 / -0.02 / 0.31 / 0.18 / 0.43 / 0.78 | 0/18 |
| KLGGVTEYEMYNKNSVA | QMTTRES | QQYHRLPLS | 0.67 / 0.94 / 1.29 / 0.35 / 0.53 / 1.04 | 1/18 (3.58) |
| HVSEMIFAQSKMRNSVA | ENSTREA | QQYDRLPLS | 2.33 / 1.95 / 3.15 / 3.40 / 2.56 / nd | 1/18 (3.77) |
| MISQLFMYGSRNYNSIA | QASTREK | QQYDRLPLI | 2.46 / 1.31 / 1.65 / 1.94 / 1.95 / 1.03 | 0/18 |
| KLSISHQVESINKSNVA | EMVTREK | QQYDRLPLS | 2.01 / nd / 1.61 / 1.14 / 3.09 / nd | 0/18 |
| QLGGVQDMTSKNKNSVA | EQSTREN | QQYHRLPLS | 0.34 / 0.41 / 0.25 / -0.02 / -0.07 / 0.38 | 0/18 |
| KIGGVTNGISRSKNSVA | EQSTRED | QQYDRLPLS | 0.11 / 0.20 / 0.27 / 0.29 / 0.24 / 0.51 | 0/18 |
| TISNSFMMENQFKNSVA | QVSTRES | QCYDRLPLS | 0.97 / 0.80 / 0.80 / 0.05 / 0.93 / 0.32 | 2/18 (2.17) |
| KISMMSSIESIMHNSVA | QTSEREN | QQYDRLPLS | 0.80 / 0.82 / 0.83 / 0.63 / 0.80 / 0.40 | 1/18 (2.61) |
| KLLQTVMNGRRNRNNVA | HMTMRED | QQYFRLPLS | nd / nd / nd / 2.71 / nd / nd | 0/18 |
| MISQSVGMTSRNKNSVA | ENSTRED | QQYDRLPLS | nd / nd / nd / nd / nd / 3.41 | 1/18 (2.81) |
| ILSQMLLTAGNKGNSVA | QANYRES | QQYHRLPLS | 1.06 / 1.57 / 0.34 / 1.45 / 0.96 / 1.70 | 1/18 (2.49) |
| KISQLVNFLGKNMNSVA | QMSTRES | QQYDRLPLS | 2.29 / 1.88 / nd / 1.01 / 1.84 / 1.74 | 0/18 |
| KISGLVNFFGHAINSVA | EMVTREN | QQYDRLPLS | 1.19 / 1.21 / 1.37 / 0.83 / 1.04 / 1.12 | 3/18 (2.61) |
| KIGHGVTGTSRKGNSVA | QAETRVD | QQYHRLPLM | 0.22 / 0.36 / 0.12 / -0.17 / 0.11 / 0.32 | 0/18 |
| KLSATYRFESQNKSNIA | EMTMRES | QCYHRLPLS | 2.21 / 1.64 / 1.64 / 1.86 / 1.78 / 2.95 | 0/18 |
| KLRMSTGYESRNKDNIA | DNSTRGR | QQYHRLPLS | 0.86 / 1.07 / 0.80 / 0.98 / 0.68 / 0.94 | 0/18 |
| MMSMGSLGGMRARNNVA | QEETREK | QQYHHLPLI | 1.42 / 0.69 / 1.61 / 1.58 / 0.81 / 1.84 | 0/18 |
| KLSGFYRMESRNKNSVA | DNSTRES | QQYDRLPLS | nd / 3.45 / 3.01 / 3.40 / 1.90 / 3.76 | 2/18 (2.94) |
| IIYESVGTLSRNKNSVA | DNSTREK | QQYDRLPLS | 2.42 / nd / nd / 2.62 / 3.77 / 3.20 | 1/18 (3.47) |
| KLSLFYRVETQQKNSVA | DNSTRES | QDYDRLPLS | 2.25 / nd / nd / 2.37 / nd / nd | 2/18 (2.73) |
| TVSQVTGMLSHNKNSVA | DMNTRGS | QQYDRLPLS | 0.79 / 0.49 / 0.29 / 0.10 / 0.42 / 0.70 | 0/18 |
| KVQEMMAFLSSNRNSVA | DNSTRGS | QQYHRLPLS | 1.31 / nd / 1.12 / 1.85 / 1.42 / 1.24 | 0/18 |